Laboratory results taken from article PMC11456535, “Receptor activity-modifying protein modulation of parathyroid hormone-1 receptor function and signaling” (Frontiers in Pharmacology, 2024).

Sequences of proteins named here, by UniProt entry; tags and fusion partners are left off. Residues count along the entry.
UniProt Q03431, 27-593: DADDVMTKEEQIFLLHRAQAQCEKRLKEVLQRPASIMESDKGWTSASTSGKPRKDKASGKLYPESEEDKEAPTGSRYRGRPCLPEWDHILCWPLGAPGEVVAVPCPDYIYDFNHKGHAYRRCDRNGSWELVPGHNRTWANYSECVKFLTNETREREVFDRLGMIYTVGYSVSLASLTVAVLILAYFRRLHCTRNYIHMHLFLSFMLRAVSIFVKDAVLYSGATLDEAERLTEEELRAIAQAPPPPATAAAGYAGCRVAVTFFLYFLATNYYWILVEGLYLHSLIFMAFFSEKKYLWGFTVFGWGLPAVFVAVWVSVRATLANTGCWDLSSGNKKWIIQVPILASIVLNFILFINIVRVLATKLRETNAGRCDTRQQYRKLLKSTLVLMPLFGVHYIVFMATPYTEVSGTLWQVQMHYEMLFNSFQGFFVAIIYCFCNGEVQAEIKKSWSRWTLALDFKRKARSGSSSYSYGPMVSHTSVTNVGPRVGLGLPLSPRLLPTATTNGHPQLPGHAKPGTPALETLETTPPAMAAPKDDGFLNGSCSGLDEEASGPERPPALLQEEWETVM

Tests used:
[1] = target: PTH1R of the PathHunter CHO-K1 PTH1R β-arrestin cell line (UniProt Q03431)
[2] = target: PTH1R of the PathHunter CHO-K1 PTH1R β-arrestin cell line (UniProt Q03431); remark: listed apart in the source

- efficacy, cAMP accumulation (Gαs), CHO-K1 PTH1R + RAMP2 cells [1]: 93.9%
- efficacy, cAMP accumulation (Gαs), CHO-K1 PTH1R + RAMP3 cells [1]: 85.3%
- efficacy, cAMP accumulation (Gαs), CHO-K1 PTH1R parental cells (mock) [1]: 90.1%
- efficacy, calcium influx (Gαq), CHO-K1 PTH1R + RAMP2 cells [1]: 83.4%
- efficacy, β-arrestin recruitment, CHO-K1 PTH1R + RAMP2 cells [1]: 105%
- efficacy, β-arrestin recruitment, CHO-K1 PTH1R parental cells (mock) [1]: 6.75%
- pEC50, cAMP accumulation (Gαs), CHO-K1 PTH1R + RAMP2 cells [1]: 10.8 pEC50
- pEC50, cAMP accumulation (Gαs), CHO-K1 PTH1R + RAMP3 cells [1]: 9 pEC50
- pEC50, cAMP accumulation (Gαs), CHO-K1 PTH1R parental cells (mock) [1]: 9.55 pEC50
- pEC50, calcium influx (Gαq), CHO-K1 PTH1R + RAMP2 cells [1]: 6.65 pEC50
- pEC50, β-arrestin recruitment, CHO-K1 PTH1R + RAMP2 cells [1]: 8.17 pEC50
- pEC50, β-arrestin recruitment, CHO-K1 PTH1R parental cells (mock) [1]: 8.5 pEC50
- efficacy, cAMP accumulation, CHO-K1 PTH1R + RAMP2 cells, Table 7 [2]: 94%
- efficacy, cAMP accumulation, CHO-K1 PTH1R + RAMP3 cells, Table 7 [2]: 86.7%
- efficacy, cAMP accumulation, CHO-K1 PTH1R parental cells (mock), Table 7 [2]: 91.1%
- pEC50, cAMP accumulation, CHO-K1 PTH1R + RAMP3 cells, Table 7 [2]: 8.98 pEC50
- pEC50, cAMP accumulation, CHO-K1 PTH1R parental cells (mock), Table 7 [2]: 9.53 pEC50
Substance: PTHrP (1-34) (peptide)
- efficacy, cAMP accumulation after pertussis toxin (cAMP + PTX), CHO-K1 PTH1R + RAMP2 cells [1]: 94.5%
- efficacy, cAMP accumulation after pertussis toxin (cAMP + PTX), CHO-K1 PTH1R + RAMP3 cells [1]: 70.5%
- efficacy, cAMP accumulation after pertussis toxin (cAMP + PTX), CHO-K1 PTH1R parental cells (mock) [1]: 78%
- pEC50, cAMP accumulation after pertussis toxin (cAMP + PTX), CHO-K1 PTH1R + RAMP2 cells [1]: 10.7 pEC50
- pEC50, cAMP accumulation after pertussis toxin (cAMP + PTX), CHO-K1 PTH1R + RAMP3 cells [1]: 8.85 pEC50
- pEC50, cAMP accumulation after pertussis toxin (cAMP + PTX), CHO-K1 PTH1R parental cells (mock) [1]: 9.57 pEC50
